Ab-91 heavy chain CDR variants: yeast mating affinities

Data: MIT Lincoln Laboratory AlphaSeq set, Engelhart et al. 2022, doi:10.1038/s41597-022-01779-4, as distributed in FLAb.

Antigen: PDVDLGDISGINAS, a 14-residue peptide of the SARS-CoV-2 spike HR2 region.

The variants keep the light chain, the linker and the frameworks of Ab-91 (scFv order VL, three GGGGS repeats, VH).
VL: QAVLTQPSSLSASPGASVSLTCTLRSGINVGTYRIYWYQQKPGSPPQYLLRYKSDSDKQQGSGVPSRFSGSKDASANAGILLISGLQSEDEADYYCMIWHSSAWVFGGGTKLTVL
VH: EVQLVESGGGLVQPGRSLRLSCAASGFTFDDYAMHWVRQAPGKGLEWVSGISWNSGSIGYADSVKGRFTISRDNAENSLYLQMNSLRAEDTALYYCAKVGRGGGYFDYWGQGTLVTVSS

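Phage display of a naive human antibody library on the peptide gave the parent. In library AAYL51, one, two or three CDR residues were substituted; doubles and triples were drawn at random. The scFvs were displayed on barcoded MATa yeast, the peptide on MATalpha yeast. After mating in shaken culture at 30 °C for 16 h, diploids were selected and their barcode pairs sequenced. Scores were corrected for input abundance and mapped to Kd with protein pairs of known affinity run in the same pool. Mating was done three times.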

Variants are written as CDR1, CDR2 and CDR3 of the heavy chain (limits as in the source). Parent: GFTFDDYAMH, GISWNSGSIGYADSVK, VGRGGGYFDY. Values are log10 of the apparent Kd in nM; lower means stronger binding. A pair that was not seen in that replicate is written "n.d."; this usually means weak binding, but a binder can also be missed.

{"CDR-H1": "GFTFDDYAMT", "CDR-H2": "GIHWNSGSIGYADSVK", "CDR-H3": "VGRAGGYFDY", "log10 Kd (nM) by replicate": "n.d. / 5.56 / n.d.", "signal with controls": "2/9 (4.35)"}
{"CDR-H1": "GFTFDDYAMH", "CDR-H2": "GIAWNDGSIGYADSVK", "CDR-H3": "VGRGGMYFDY", "log10 Kd (nM) by replicate": "6.37 / n.d. / n.d.", "signal with controls": "5/9 (5.14)"}
{"CDR-H1": "GFTFDDYAMH", "CDR-H2": "GISYNSGSIGYADSMK", "CDR-H3": "VGRGGGYFDY", "log10 Kd (nM) by replicate": "0.78 / 1.17 / 0.25", "signal with controls": "1/9 (4.94)"}
{"CDR-H1": "GFTFDDKAKH", "CDR-H2": "GISWNSGSIGYADSVK", "CDR-H3": "VGRGGGTFDY", "log10 Kd (nM) by replicate": "n.d. / 6.18 / n.d.", "signal with controls": "6/9 (5.07)"}
{"CDR-H1": "GFDLDDYAMH", "CDR-H2": "GISWNSGSIGYADSPK", "CDR-H3": "VGRGGGYFDY", "log10 Kd (nM) by replicate": "n.d. / n.d. / n.d.", "signal with controls": "0/9"}
{"CDR-H1": "GFTFDDYAHH", "CDR-H2": "GISWNSGSIGYALSVK", "CDR-H3": "VSRGGGYFDY", "log10 Kd (nM) by replicate": "5.39 / n.d. / n.d.", "signal with controls": "1/9 (4.18)"}
{"CDR-H1": "SFTFDDYAMH", "CDR-H2": "GISWNSGSIGYADSVK", "CDR-H3": "VGRGGNYFGY", "log10 Kd (nM) by replicate": "n.d. / 5.17 / n.d.", "signal with controls": "3/9 (4.48)"}
{"CDR-H1": "GFTFDDYAMH", "CDR-H2": "GPSWNSGSIGYADSVK", "CDR-H3": "VGRGGPYFDY", "log10 Kd (nM) by replicate": "5.07 / n.d. / n.d.", "signal with controls": "2/9 (4.85)"}
{"CDR-H1": "GFTFDDYAMH", "CDR-H2": "GISWNSGAIGYADSVK", "CDR-H3": "WARGGGYFDY", "log10 Kd (nM) by replicate": "4.27 / n.d. / n.d.", "signal with controls": "0/9"}
{"CDR-H1": "GFTFDDYAMH", "CDR-H2": "GISWESGSIGYADSYK", "CDR-H3": "VGRGGGYFVY", "log10 Kd (nM) by replicate": "n.d. / n.d. / n.d.", "signal with controls": "0/9"}
{"CDR-H1": "GTTFDDYAQH", "CDR-H2": "GISWNSGSIGYGDSVK", "CDR-H3": "VGRGGGYFDY", "log10 Kd (nM) by replicate": "4.70 / n.d. / n.d.", "signal with controls": "0/9"}
{"CDR-H1": "GRTFDDYAMH", "CDR-H2": "GISRNSGSIGYADSVK", "CDR-H3": "VGRGGGDFDY", "log10 Kd (nM) by replicate": "4.76 / 4.38 / 5.69", "signal with controls": "8/9 (5.23)"}
{"CDR-H1": "GFTFFDMMMH", "CDR-H2": "GISWNSGSIGYADSVK", "CDR-H3": "VGRGGGYFDY", "log10 Kd (nM) by replicate": "n.d. / n.d. / n.d.", "signal with controls": "0/9"}
{"CDR-H1": "GFTFMDYAMH", "CDR-H2": "GISWNSGSIGYADYVK", "CDR-H3": "VGRQGGYFDY", "log10 Kd (nM) by replicate": "3.02 / 2.70 / n.d.", "signal with controls": "2/9 (3.67)"}
{"CDR-H1": "GFTFDDYAMH", "CDR-H2": "GISWNWGWIGYADLVK", "CDR-H3": "VGRGGGYFDY", "log10 Kd (nM) by replicate": "4.03 / n.d. / 4.30", "signal with controls": "3/9 (4.94)"}
{"CDR-H1": "GFTFDDYAMH", "CDR-H2": "GISWISGSIGGADSVK", "CDR-H3": "VGRGGGYIDY", "log10 Kd (nM) by replicate": "n.d. / 6.06 / n.d.", "signal with controls": "0/9"}
{"CDR-H1": "GFTFDDYAMH", "CDR-H2": "GISWNSGSIGYADSVK", "CDR-H3": "VSLGGRYFDY", "log10 Kd (nM) by replicate": "n.d. / n.d. / n.d.", "signal with controls": "0/9"}
{"CDR-H1": "GFTFDAYAMH", "CDR-H2": "NISWNSGSIGYADSVK", "CDR-H3": "VGRAGGYFDY", "log10 Kd (nM) by replicate": "n.d. / n.d. / n.d.", "signal with controls": "0/9"}
{"CDR-H1": "GFTFDDYAMH", "CDR-H2": "GISWNSGSGGYADSVK", "CDR-H3": "VGCGGGYFWY", "log10 Kd (nM) by replicate": "4.81 / 4.92 / 5.60", "signal with controls": "4/9 (4.48)"}
{"CDR-H1": "GFTFDMYAMH", "CDR-H2": "GISWNSGSIGGADSVK", "CDR-H3": "VGRGGGYFDA", "log10 Kd (nM) by replicate": "3.93 / 4.34 / n.d.", "signal with controls": "3/9 (4.37)"}
{"CDR-H1": "GFTFDDYAMH", "CDR-H2": "VWSWNSGSIGYADSVK", "CDR-H3": "VGRGGGYYDY", "log10 Kd (nM) by replicate": "n.d. / 6.04 / n.d.", "signal with controls": "1/9 (3.62)"}
{"CDR-H1": "GFTFDDYIMH", "CDR-H2": "GISWNSGSINYADSVK", "CDR-H3": "VARGGGYFDY", "log10 Kd (nM) by replicate": "n.d. / n.d. / n.d.", "signal with controls": "0/9"}
{"CDR-H1": "GFTFDDYAMH", "CDR-H2": "PISWNSGSDGYADSVK", "CDR-H3": "VGRGGGMFDY", "log10 Kd (nM) by replicate": "4.24 / 4.74 / 5.85", "signal with controls": "9/9 (5.05)"}
{"CDR-H1": "GFTFDDYAMH", "CDR-H2": "GISWNSGSIGRADIVK", "CDR-H3": "VGRGGGYHDY", "log10 Kd (nM) by replicate": "n.d. / n.d. / n.d.", "signal with controls": "1/9 (3.06)"}
{"CDR-H1": "GFTFDDYGMI", "CDR-H2": "GISWNSGSIHYADSVK", "CDR-H3": "VGRGGGYFDY", "log10 Kd (nM) by replicate": "4.22 / n.d. / n.d.", "signal with controls": "2/9 (3.91)"}
{"CDR-H1": "GFTFDDYAMH", "CDR-H2": "GASWNSGSIGYADSVK", "CDR-H3": "VGRGGTYFDY", "log10 Kd (nM) by replicate": "n.d. / n.d. / 4.04", "signal with controls": "0/9"}
{"CDR-H1": "GFTFDDYAMT", "CDR-H2": "GISWNSDSIGYADSVK", "CDR-H3": "VGRLGGYFDY", "log10 Kd (nM) by replicate": "n.d. / n.d. / n.d.", "signal with controls": "3/9 (5.12)"}
{"CDR-H1": "GFTFDDVAMH", "CDR-H2": "GISWNSGSIGYADDVK", "CDR-H3": "VGRGGCYFDY", "log10 Kd (nM) by replicate": "3.76 / n.d. / n.d.", "signal with controls": "1/9 (3.13)"}
{"CDR-H1": "GFTFDDYAMH", "CDR-H2": "GISWNSCSHGMADSVK", "CDR-H3": "VGRGGGYFDY", "log10 Kd (nM) by replicate": "n.d. / n.d. / 1.18", "signal with controls": "0/9"}

Again, the first 2 entries without any signal:

CDR-H1,CDR-H2,CDR-H3,log10 Kd (nM) by replicate,signal with controls
GFDLDDYAMH,GISWNSGSIGYADSPK,VGRGGGYFDY,n.d. / n.d. / n.d.,0/9
GFTFDDYAMH,GISWESGSIGYADSYK,VGRGGGYFVY,n.d. / n.d. / n.d.,0/9

For reference, the parent read 1.86 as the reference entry and 0.88 as a member of this library. Empty control strains, which show no peptide, gave a signal in 21% of pairings with library AAYL51; the median was 4.54 and 95% of these signals were weaker than 3.26. No background was subtracted. The control count says in how many pairings with the empty strains this scFv gave a signal, with their mean in brackets.